# This is a sample that favours compounds with a hit; in the whole collection about 16% have one here.
# miR-21 reporter: miR-21 reporter, rising signal; HeLa miR-21 FLuc reporter, luciferase, 48 h; Potency, µM (highest dose often 38.3 µM), for the others: top-dose reporter change, positive = more light; 340,000 tested, under 10 active; AID 2288; active = well fitted rising curve with a large enough effect; inconclusive = small, poorly fitted or top-dose-only effect; inactive = no such curve, though single readings can be large or run the other way;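 further: % of control where 0% means no effect; miR-21 action dims this reporter so a rising signal means less miR-21 action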
#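 Using DMEM plus 10% FBS, HeLa miR-21-FLuc cells are incubated with test compounds (final up to about 40uM) for 48 hours; firefly luciferase signal is then imaged following reagent-mediated lysis.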
# uPA generation: inhibitors of cell surface uPA generation; cell surface uPA generation assay, qHTS; Potency, µM (series often up to 38.3 µM), for inactives: at the highest dose activity change, negative = inhibition, hits mostly inhibitors; 330,000 tested, 0.31% active; active = well fitted inhibition curve with a large enough effect; inconclusive = small, poorly fitted or top-dose-only effect; inactive = no such curve, though single readings can be large or run the other way; tested in mouse RAW 264.7 cells; also: potency is read from the fitted curve at half-maximal effect; % is scaled to controls: 0 for no effect and ±100 for the full control effect; nearly all actives have a fitted effect of over 55% in size
# TDP1 cell noCPT: qHTS for Inhibitors of human tyrosyl-DNA phosphodiesterase 1 (TDP1): qHTS in cells in absence of CPT. DT40 Tdp1-/- hTDP1 cells, no CPT, ATP luminescence, 48 h. Potency, µM (doses to about 46.2 µM), for inactives: at the highest dose activity change, negative = growth inhibition, hits mostly inhibitors. 420,000 tested, 15% active; also: potency is read from the fitted curve at half-maximal effect; % is scaled to controls: 0 for no effect and ±100 for the full control effect; nearly all actives have a fitted effect of over 55% in size
#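 Growth of hTDP1-complemented DT40 Tdp1-knockout cells is measured by ATP luminescence after at least 48 hr compound exposure at 37 °C, with DMSO substituting for the 20 nM CPT used in the parallel screen.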
# TDP1 block: TDP1 (human) enzyme inhibition; recombinant TDP1, AlphaScreen DNA substrate cleavage; Potency, µM (titrated, usually from 130 µM), without a hit: at the top dose activity change, negative = inhibition, usual class: inhibitors; 350,000 tested, 0.28% active; AID 485290; also: potency is read from the fitted curve at half-maximal effect; % is scaled to controls: 0 for no effect and ±100 for the full control effect; nearly all actives have a fitted effect of over 40% in size
#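 E. coli-derived human Tdp1, 1 nM final. Cpd preinc 15 min RT; substrate 15 nM final, 5 min RT; AS bead mix 10 ug/ml final, 10 min RT. Signal loss = tyrosine-FITC cleavage. No-enzyme wells = max signal.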
# TDP1 cell CPT: growth inhibition of DT40 Tdp1-/-;hTDP1 cells with camptothecin (screen for TDP1 inhibitors); chicken DT40 Tdp1-/-;hTDP1 cells + 20 nM CPT, ATP luminescence, 48 h; 420,000 tested, 12% active; AID 686979; Potency, µM (top dose mostly 46.2 µM), for the others: at the highest dose activity change, negative = growth inhibition, hits mostly inhibitors; also: potency is read from the fitted curve at half-maximal effect; % is scaled to controls: 0 for no effect and ±100 for the full control effect; nearly all actives have a fitted effect of over 55% in size
#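 Chicken DT40 Tdp1-/- cells complemented with human TDP1, 400 cells/well, exposed to compounds plus 20 nM camptothecin for at least 48 h at 37 C; viability read as ATP content by CellTiter-Glo luminescence.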
# * hit, by the source's call; ? = inconclusive; . = no result given; [ ] = dose if it differs, or a comment. Unless noted, calls follow the shape of the dose curve; as a rule, active = well fitted curve in the direction sought with a large enough effect; inconclusive = small, poorly fitted or top-dose-only effect, or another doubt; inactive = no such curve, though single readings can be large; an effect the other way counts as inactive or inconclusive.
[1] Cc1ccnn1C(C)C(=O)O (configuration not stated)
[2] Fc1ccc(OCCOCCOc2cccc3[nH]ccc23)cc1
[3] COc1ccccc1CNC(=O)c1ccc2nc(-c3ccccc3)c(-c3ccccc3)nc2c1
[4] CCCNC(=O)c1ccc2nc(-c3ccccc3)c(-c3ccccc3)nc2c1
[5] C=CCNC(=O)c1ccc(-c2nc3ccccc3nc2-c2ccccc2)cc1
[6] CCNC(=O)c1ccc2nc(-c3ccccc3)c(-c3ccccc3)nc2c1
[7] Cc1c(Cl)cccc1NC(=O)c1ccc2c(c1)nnn2C1CCCC1
[8] COc1ccccc1CNC(=O)c1ccc2nc(CCc3ccccc3)oc2c1
[9] O=C(NCc1ccco1)C1CCN(S(=O)(=O)N2CCOCC2)CC1
[10] CCOc1cc(-c2noc(CCC(=O)NC3CCCCC3)n2)ccc1OC

compound no.	1	2	3	4	5	6	7	8	9	10
uPA generation	2%	-16%	.	5%	-5%	.	.	.	.	8%
TDP1 cell CPT	-5%	17%	?	?	?	11µM*	2.6µM*	?	-3%	-16%
miR-21 reporter	2%	-8%	13%	17%	.	.	14%	1%	-4%	-7%
TDP1 cell noCPT	-20%	-8%	18µM*	23µM*	?	11µM*	2.6µM*	-26%	-7%	?
TDP1 block	-3%	1%	3%	0%	.	2%	0%	-1%	-2%	-10%[0.0935 µM]

# Reprinted from the part before: 3 compounds; new compounds follow.
[8] COc1ccccc1CNC(=O)c1ccc2nc(CCc3ccccc3)oc2c1
[9] O=C(NCc1ccco1)C1CCN(S(=O)(=O)N2CCOCC2)CC1
[10] CCOc1cc(-c2noc(CCC(=O)NC3CCCCC3)n2)ccc1OC
[11] COCC(C)NC(=O)c1ccc(N(C)C)cc1 (configuration not stated)
[12] COc1ccc(C(=O)NCCCN2CCOCC2)cc1
[13] COCC(C)NC(=O)c1ccc2nc(-c3ccccc3)c(-c3ccccc3)nc2c1 (configuration not stated)
[14] COc1ccc(-c2nc3ccc(C(=O)NCCCN4CCOCC4)cc3nc2-c2ccc(OC)cc2)cc1
[15] Cc1ccc(C(=O)NCCN2CCOCC2)cc1
[16] CCN1CCN(CCNC(=O)c2ccc3nc(-c4cccc(C)c4)c(-c4cccc(C)c4)nc3c2)CC1
[17] CCN(CC)C(=O)c1ccc2nc(-c3ccccc3)c(-c3ccccc3)nc2c1
[18] O=C(c1ccc(F)cc1)C1CCN(C(=O)c2ccncc2)CC1
[19] CN(C)/C=C/C1=C([N+](=O)[O-])C(c2cccc([N+](=O)[O-])c2)NC(=O)N1 (configuration not stated)
[20] O=C(c1ccncc1)c1ccc(NS(=O)(=O)c2ccc(Br)s2)cc1

compound no.	8	9	10	11	12	13	14	15	16	17	18	19	20
uPA generation	.	.	8%	0%	18%	7%	14%	0%	1%	5%	.	1%	2%
TDP1 cell CPT	?	-3%	-16%	9%	6%	?	?	-1%	16µM*	?	-7%	-2%	16µM*
miR-21 reporter	1%	-4%	-7%	-14%	-13%	9%	3%	-24%	-2%	2%	-2%	0%	-13%
TDP1 cell noCPT	-26%	-7%	?	0%	-2%	21µM*	23µM*	7%	16µM*	21µM*	-11%	0%	18µM*
TDP1 block	-1%	-2%	-10%[0.0935 µM]	0%	4%	-4%	0%	0%	6%	0%	-4%	.	6%

[21] Cc1cc(C)c2c(c1)/C(=c1/sc3n(c1=O)CN(c1ccccc1)CN=3)C(=O)N2
[22] O=c1/c(=C/c2ccccn2)sc2n1CN(c1ccccc1)CN=2
[23] COc1ccccc1CNS(=O)(=O)c1c(C)nc2scc(C)n2c1=O
[24] O=C(CCC(=O)CCN1CCCCC1)CCN1CCCCC1
[25] O=C(NCc1ccco1)/C(=C/c1cccc(C(F)(F)F)c1)c1nc2ccccc2[nH]1
[26] O=C(NCc1ccco1)/C(=C/c1ccc(C(F)(F)F)cc1)c1nc2ccccc2[nH]1
[27] Cc1cccc(C)c1-n1nnnc1SCc1nc(N)nc(N(C)C)n1
[28] COc1ccc(C)cc1-n1nnnc1SCc1nc(N)nc(N(C)C)n1
[29] O[C@@](CCN1CCCC1)(c1ccccc1)C1CCCCC1

compound no.	21	22	23	24	25	26	27	28	29
uPA generation	18%	2%	-1%	3%	-10%	?	.	.	.
TDP1 cell CPT	10µM*	-17%	-4%	13µM*	9.2µM*	?	2.3µM*	4.6µM*	.
miR-21 reporter	-6%	6%	0%	-4%	?	-46%	.	.	.
TDP1 cell noCPT	16µM*	?	23%	21µM*	5.8µM*	?	2.1µM*	6.5µM*	.
TDP1 block	?	6%	2%	1%	8%	8%	.	.	14%[21 µM]
